From PMC4381330, “Identification of a novel selective agonist of PPARγ with no promotion of adipogenesis and less inhibition of osteoblastogenesis” (Scientific Reports, 2015)

The chains behind the UniProt entries cited, without tags or fusion partners. Residues count along the entry.
UniProt P37231, 238-503 limits assumed: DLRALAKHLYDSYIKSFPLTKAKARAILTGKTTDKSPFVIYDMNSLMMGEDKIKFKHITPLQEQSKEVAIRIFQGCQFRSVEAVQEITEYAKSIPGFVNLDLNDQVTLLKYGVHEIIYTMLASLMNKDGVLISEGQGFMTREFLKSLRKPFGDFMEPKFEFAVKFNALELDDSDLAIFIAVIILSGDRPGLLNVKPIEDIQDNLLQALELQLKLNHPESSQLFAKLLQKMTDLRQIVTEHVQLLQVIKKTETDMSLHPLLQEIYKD

What was measured:
[1] = molecular target: T1, CDK5-mediated phosphorylation of PPARγ at Ser273 (Homo sapiens, UniProt P37231); design: method as in PMID 20651683; conditions: cited from earlier work
T1 construct: 0.5 μg purified PPARγ-LBD protein was incubated with 50 ng CDK5/p25 kinase (Millipore); Millipore (CDK5/p25 only)

PPARδ = molecular target: T2, PPARδ (Homo sapiens, UniProt Q03181); assay: Receptor-specific transactivation, GAL4-LBD reporter in HEK293T cells; format: cell-based; conditions: 30 μM F12016
T2 construct: expressed in transfected cells; host or cells: HEK293T
T2 sequence (Q03181 211-439 limits assumed): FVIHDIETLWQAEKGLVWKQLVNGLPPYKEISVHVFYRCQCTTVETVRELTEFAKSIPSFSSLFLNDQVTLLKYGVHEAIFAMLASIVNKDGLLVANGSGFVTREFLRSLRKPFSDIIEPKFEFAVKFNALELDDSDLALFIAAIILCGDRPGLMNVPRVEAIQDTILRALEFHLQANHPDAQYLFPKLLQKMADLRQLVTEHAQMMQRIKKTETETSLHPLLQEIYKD

[2] = molecular target: T3, human PPARγ-LBD (coactivator peptide recruitment) (Homo sapiens, UniProt P37231); assay: LanthaScreen TR-FRET coactivator peptide recruitment assay; format: biochemical; conditions: compared with rosiglitazone
T3 construct: incubated with GST-fused human PPARγ-LBD, terbium-labeled anti-GST antibody; purchased Invitrogen

Substance | inhibition of PPARγ phosphorylation at Ser273 compared with rosiglitazone [1] | transactivation of PPARδ (PPARδ) | relative magnitude of PGC-1α recruitment [2]
MRL24 | at least equivalent inhibition | – | –
2-[2-(1, 2-dimethyl-1H-indol-3-yl)-2-oxo-acetylamino]-benzamide [Compound F12016] | – | no effects | half of rosiglitazone
